The target of the experiment is rat A3 AR (Rattus norvegicus, UniProt P28647). The experiment is described as follows: Radioligand binding at rat A3 AR.

Sequences of proteins named here, by UniProt entry; tags and fusion partners are left off.
UniProt P28647, whole entry: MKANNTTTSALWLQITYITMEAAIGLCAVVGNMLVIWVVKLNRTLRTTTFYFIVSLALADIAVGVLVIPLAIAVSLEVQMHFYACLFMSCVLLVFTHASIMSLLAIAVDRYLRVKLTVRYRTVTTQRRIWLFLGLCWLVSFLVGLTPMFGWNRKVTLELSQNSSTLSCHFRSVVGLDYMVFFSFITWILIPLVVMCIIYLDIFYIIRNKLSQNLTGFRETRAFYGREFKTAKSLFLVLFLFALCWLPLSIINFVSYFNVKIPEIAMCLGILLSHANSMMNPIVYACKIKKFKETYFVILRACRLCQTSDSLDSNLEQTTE

For the molecule `O[C@@H]1[C@H](O)CS[C@H]1n1cnc2c(NCc3cccc(Cl)c3)nc(Cl)nc21` [Compound 6c], the inhibition constant Ki was 6.2 ± 1.8 nM.

The Ki is the dissociation constant of the complex between target and ligand, obtained from inhibition or displacement. A higher Ki goes with weaker binding.
